{
  "source": "patent US11229625B2",
  "about": "“Titration of Cebranopadol” (dated 2022)",
  "key": {"[1]": {"tested_on": "rat models of acute and chronic pain", "settings": "cited from earlier work"}, "[2]": {"tested_on": "CNS and the respiratory system", "settings": "cited from earlier work"}, "[3]": {"test": "clinical trials of Cebranopadol, treatment emergent adverse events"}, "[4]": {"test": "population pharmacokinetic-pharmacodynamic model of clinical data, Low Back pain population", "settings": "daily dose of 100 μg, FIG. 1"}},
  "note": "Where two headings read alike, the source gives them in different places.",
  "data": [
    {"smiles": "CN(C)[C@]1(c2ccccc2)CC[C@]2(CC1)OCCc1c3cc(F)ccc3[nH]c12", "values": [
      {"measurement": "potency in chronic neuropathic versus acute nociceptive pain models", "setting": "[1]; in comparison with selective MOP receptor agonists", "result": "more potent in models of chronic neuropathic than acute nociceptive pain"},
      {"measurement": "ED50, antinociceptive and antihypersensitive effects", "setting": "[1]; rat models of acute and chronic pain, oral administration", "result": 0.0251, "unit": "mg/kg"},
      {"measurement": "ED50, antinociceptive and antihypersensitive effects", "setting": "[1]; several rat models of acute and chronic pain, intravenous administration", "result": "0.0005 to 0.0056", "unit": "mg/kg"},
      {"measurement": "therapeutic window", "setting": "[2]; compared with Morphine", "result": "broader therapeutic window"},
      {"measurement": "effect on motor coordination and respiratory function", "setting": "[2]; rats, doses higher than those required for inducing analgesia", "result": "affects neither motor coordination nor respiratory function"},
      {"measurement": "tolerability in clinical trials", "setting": "[3]", "result": "well tolerated"},
      {"measurement": "placebo corrected effect, therapeutic effectiveness of dose", "setting": "[4]", "result": "subtherapeutic"}
    ]}
  ]
}
